The target of experiment [1] is EGFR D19TMCS (del19/T790M/C797S) (Homo sapiens, UniProt P00533, C797S/DEL746-750/T790M). Description: Biochemical EGFR kinase assay (Lance Ultra TR-FRET), triple mutant del19/T790M/C797S. In general terms: In TR-FRET formats the signal depends on donor and acceptor labels being close together.
For experiment [2], the target named is EGFR LRTMCS (L858R/T790M/C797S) (Homo sapiens, UniProt P00533, C797S/L858R/T790M). Description: Biochemical EGFR kinase assay (Lance Ultra TR-FRET), triple mutant L858R/T790M/C797S.
In another experiment the target is EGFR D19CS (del19/C797S) (Homo sapiens, UniProt P00533, C797S/DEL746-750). Description: Biochemical EGFR kinase assay (Lance Ultra TR-FRET), double mutant del19/C797S.
The next experiment deals with EGFR LRCS (L858R/C797S) (Homo sapiens, UniProt P00533, C797S/L858R). Description: Biochemical EGFR kinase assay (Lance Ultra TR-FRET), double mutant L858R/C797S.
For the next experiment, the target named is EGFR WT (Homo sapiens, UniProt P00533). Description: Biochemical EGFR kinase assay (Lance Ultra TR-FRET), wildtype.
Setting [3] is: read-out: EGFR D19TMCS IC50, ATP 1 mM.
[4] abbreviates: read-out: EGFR D19TMCS IC50, ATP Km.
[5] abbreviates: read-out: EGFR LRTMCS IC50, ATP 1 mM.
Where [6] appears, read: read-out: EGFR LRTMCS IC50, ATP Km.
The mark [7] stands for this setting: read-out: EGFR D19CS IC50, ATP 1 mM.
Setting [8] is: read-out: EGFR D19CS IC50, ATP Km.
[9] abbreviates: read-out: EGFR LRCS IC50, ATP 1 mM.
Where [10] appears, read: read-out: EGFR LRCS IC50, ATP Km.
Where [11] appears, read: read-out: EGFR WT IC50, ATP 1 mM.
Setting [12] is: read-out: IC50, EGFR D19TMCS, Km, ATP at Km, EGFR del19/T790M/C797S.
The mark [13] stands for this setting: read-out: IC50, EGFR LRTMCS, 1 mM, ATP 1 mM, EGFR L858R/T790M/C797S.
Where [14] appears, read: read-out: IC50, EGFR LRTMCS, Km, ATP at Km, EGFR L858R/T790M/C797S.
The mark [15] stands for this setting: read-out: IC50, EGFR-D19CS, 1 mM, ATP 1 mM, EGFR del19/C797S.
Setting [16] is: read-out: IC50, EGFR-D19CS, Km, ATP at Km, EGFR del19/C797S.
The mark [17] stands for this setting: read-out: IC50, EGFR-LRCS, 1 mM, ATP 1 mM, EGFR L858R/C797S.
[18] abbreviates: read-out: IC50, EGFR-LRCS, Km, ATP at Km, EGFR L858R/C797S.
The mark [19] stands for this setting: read-out: IC50, EGFR WT, 1 mM, ATP 1 mM, EGFR wildtype.
The mark [20] stands for this setting: read-out: IC50, EGFR WT, Km, ATP at Km, EGFR wildtype.

Chains of the proteins cited; added tags and fusions are not shown. Lines headed by an entry give the natural chain unless they say otherwise; changes in a name come on top. A line that says so, or that is headed by a name, gives the form on record, which may keep a tag or linker. Residues count along the entry.
UniProt P00533, 25-1210 limits assumed: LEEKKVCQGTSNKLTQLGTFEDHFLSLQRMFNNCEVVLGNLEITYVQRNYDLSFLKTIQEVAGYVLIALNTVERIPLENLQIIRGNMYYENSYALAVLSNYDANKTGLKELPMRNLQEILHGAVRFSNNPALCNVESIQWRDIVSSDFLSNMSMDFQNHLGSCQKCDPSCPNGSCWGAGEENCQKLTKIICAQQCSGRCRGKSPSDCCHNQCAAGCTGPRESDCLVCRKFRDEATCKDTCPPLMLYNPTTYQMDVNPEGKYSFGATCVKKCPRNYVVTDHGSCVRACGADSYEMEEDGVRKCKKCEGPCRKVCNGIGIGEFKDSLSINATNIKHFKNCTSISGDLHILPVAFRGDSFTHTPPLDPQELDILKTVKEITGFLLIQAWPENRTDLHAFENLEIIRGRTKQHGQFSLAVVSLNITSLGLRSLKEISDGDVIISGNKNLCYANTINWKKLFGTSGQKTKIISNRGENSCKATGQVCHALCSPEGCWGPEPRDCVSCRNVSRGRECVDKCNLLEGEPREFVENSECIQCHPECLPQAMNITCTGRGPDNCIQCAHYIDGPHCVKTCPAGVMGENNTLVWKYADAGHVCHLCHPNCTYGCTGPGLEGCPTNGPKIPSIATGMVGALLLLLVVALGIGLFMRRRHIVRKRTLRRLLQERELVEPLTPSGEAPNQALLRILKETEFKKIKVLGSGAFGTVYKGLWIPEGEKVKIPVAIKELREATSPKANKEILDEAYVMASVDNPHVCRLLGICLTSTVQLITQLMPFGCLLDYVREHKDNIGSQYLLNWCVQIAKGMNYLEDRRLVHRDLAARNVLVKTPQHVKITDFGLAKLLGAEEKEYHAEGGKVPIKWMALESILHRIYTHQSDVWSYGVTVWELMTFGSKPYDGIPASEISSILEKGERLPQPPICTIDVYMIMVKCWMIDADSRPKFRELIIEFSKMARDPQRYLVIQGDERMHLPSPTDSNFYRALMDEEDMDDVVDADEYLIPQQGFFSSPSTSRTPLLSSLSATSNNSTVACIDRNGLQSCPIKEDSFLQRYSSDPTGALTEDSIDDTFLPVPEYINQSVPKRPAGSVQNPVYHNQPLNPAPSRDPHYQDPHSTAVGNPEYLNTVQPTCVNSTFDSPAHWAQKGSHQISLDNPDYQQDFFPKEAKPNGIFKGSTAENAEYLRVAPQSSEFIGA
UniProt P00533, 25-1210 C797S/L858R limits assumed: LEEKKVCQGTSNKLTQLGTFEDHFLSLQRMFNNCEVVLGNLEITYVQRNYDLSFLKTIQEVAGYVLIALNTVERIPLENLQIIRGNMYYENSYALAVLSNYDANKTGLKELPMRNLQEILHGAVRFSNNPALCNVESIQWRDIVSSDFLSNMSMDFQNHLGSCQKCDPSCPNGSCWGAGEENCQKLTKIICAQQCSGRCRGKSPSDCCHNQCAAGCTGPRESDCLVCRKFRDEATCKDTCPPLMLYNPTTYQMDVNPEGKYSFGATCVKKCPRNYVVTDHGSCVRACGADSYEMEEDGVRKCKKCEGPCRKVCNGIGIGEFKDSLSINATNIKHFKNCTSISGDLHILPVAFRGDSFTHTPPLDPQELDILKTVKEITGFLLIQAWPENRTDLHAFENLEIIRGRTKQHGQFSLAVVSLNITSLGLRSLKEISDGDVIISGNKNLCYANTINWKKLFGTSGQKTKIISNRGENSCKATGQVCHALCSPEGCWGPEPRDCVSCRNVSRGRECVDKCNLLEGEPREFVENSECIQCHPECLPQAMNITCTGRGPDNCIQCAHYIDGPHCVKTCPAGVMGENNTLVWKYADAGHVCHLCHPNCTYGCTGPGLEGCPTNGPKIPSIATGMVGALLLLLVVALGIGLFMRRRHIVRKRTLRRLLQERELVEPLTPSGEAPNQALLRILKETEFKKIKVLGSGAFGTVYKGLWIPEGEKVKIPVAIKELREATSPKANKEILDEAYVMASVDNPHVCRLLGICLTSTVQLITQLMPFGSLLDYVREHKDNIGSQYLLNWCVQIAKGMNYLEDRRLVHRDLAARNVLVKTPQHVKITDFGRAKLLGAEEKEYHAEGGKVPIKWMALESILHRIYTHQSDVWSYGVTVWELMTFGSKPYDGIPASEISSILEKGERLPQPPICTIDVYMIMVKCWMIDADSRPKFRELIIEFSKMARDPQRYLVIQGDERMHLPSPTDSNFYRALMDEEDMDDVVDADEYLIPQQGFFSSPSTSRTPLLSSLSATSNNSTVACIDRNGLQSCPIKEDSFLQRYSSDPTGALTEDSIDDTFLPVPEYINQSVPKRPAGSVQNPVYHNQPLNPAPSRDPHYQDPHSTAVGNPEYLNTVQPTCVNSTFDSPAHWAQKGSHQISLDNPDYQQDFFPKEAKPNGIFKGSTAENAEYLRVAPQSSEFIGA
UniProt P00533, 25-1210 T790M/C797S/L858R limits assumed: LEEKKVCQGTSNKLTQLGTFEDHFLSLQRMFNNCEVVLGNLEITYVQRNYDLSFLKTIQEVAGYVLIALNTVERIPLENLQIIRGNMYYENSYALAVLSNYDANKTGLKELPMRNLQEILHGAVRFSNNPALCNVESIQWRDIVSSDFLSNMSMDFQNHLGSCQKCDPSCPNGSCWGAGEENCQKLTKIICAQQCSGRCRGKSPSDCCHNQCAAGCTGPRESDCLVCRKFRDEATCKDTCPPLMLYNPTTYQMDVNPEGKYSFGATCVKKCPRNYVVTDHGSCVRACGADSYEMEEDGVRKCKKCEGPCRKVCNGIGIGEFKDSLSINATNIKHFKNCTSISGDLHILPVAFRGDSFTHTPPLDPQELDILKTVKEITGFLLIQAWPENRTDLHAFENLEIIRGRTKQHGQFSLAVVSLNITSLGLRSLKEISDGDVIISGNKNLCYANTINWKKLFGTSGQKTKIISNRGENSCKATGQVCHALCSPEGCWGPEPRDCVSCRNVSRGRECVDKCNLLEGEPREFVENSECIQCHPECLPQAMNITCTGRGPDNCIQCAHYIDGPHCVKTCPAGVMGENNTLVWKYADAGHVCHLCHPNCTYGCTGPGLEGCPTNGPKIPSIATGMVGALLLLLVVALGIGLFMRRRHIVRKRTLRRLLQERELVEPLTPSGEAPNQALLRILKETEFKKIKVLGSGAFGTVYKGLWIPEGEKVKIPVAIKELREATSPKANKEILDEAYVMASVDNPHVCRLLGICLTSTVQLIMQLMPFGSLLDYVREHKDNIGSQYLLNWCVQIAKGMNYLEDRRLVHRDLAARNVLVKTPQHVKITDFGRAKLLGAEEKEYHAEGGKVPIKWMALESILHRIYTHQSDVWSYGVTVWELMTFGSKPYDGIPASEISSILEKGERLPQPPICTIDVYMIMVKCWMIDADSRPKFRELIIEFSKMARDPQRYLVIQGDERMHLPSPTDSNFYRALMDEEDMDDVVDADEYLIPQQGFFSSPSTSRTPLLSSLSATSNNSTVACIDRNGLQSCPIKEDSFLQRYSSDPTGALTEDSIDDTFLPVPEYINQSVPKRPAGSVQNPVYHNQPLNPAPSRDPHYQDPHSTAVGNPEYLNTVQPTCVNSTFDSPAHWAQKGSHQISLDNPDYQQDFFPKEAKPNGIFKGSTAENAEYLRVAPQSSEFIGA
UniProt P00533, with tags, fused parts or gaps DEL746-750/C797S limits assumed: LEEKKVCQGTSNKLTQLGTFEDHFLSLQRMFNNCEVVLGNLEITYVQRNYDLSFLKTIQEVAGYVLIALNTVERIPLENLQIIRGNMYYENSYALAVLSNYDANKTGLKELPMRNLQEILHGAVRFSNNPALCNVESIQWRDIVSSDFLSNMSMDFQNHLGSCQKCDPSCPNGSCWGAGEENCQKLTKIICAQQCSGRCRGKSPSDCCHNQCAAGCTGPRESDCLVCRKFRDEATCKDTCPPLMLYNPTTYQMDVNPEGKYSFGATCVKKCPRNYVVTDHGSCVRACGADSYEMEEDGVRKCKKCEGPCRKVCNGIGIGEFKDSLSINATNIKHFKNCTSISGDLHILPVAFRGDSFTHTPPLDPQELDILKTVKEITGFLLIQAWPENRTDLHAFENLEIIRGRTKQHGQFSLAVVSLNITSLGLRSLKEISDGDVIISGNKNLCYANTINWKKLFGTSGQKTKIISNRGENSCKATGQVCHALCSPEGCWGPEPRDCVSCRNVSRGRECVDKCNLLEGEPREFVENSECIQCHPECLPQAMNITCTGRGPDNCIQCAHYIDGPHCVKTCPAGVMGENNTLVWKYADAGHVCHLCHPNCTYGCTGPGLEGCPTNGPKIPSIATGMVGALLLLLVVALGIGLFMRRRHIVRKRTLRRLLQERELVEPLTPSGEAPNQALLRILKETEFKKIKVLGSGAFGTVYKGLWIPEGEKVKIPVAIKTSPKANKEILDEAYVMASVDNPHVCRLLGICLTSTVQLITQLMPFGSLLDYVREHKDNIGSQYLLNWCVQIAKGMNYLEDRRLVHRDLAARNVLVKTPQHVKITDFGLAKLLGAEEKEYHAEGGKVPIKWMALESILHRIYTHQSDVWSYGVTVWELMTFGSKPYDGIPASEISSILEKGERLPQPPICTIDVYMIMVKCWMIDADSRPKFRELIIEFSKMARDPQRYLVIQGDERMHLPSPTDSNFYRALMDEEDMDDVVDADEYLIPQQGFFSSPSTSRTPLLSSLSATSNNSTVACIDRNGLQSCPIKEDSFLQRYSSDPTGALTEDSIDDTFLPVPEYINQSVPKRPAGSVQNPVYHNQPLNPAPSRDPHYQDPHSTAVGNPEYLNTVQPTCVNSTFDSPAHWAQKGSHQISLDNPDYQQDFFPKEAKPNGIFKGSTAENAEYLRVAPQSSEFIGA
UniProt P00533, with tags, fused parts or gaps DEL746-750/T790M/C797S limits assumed: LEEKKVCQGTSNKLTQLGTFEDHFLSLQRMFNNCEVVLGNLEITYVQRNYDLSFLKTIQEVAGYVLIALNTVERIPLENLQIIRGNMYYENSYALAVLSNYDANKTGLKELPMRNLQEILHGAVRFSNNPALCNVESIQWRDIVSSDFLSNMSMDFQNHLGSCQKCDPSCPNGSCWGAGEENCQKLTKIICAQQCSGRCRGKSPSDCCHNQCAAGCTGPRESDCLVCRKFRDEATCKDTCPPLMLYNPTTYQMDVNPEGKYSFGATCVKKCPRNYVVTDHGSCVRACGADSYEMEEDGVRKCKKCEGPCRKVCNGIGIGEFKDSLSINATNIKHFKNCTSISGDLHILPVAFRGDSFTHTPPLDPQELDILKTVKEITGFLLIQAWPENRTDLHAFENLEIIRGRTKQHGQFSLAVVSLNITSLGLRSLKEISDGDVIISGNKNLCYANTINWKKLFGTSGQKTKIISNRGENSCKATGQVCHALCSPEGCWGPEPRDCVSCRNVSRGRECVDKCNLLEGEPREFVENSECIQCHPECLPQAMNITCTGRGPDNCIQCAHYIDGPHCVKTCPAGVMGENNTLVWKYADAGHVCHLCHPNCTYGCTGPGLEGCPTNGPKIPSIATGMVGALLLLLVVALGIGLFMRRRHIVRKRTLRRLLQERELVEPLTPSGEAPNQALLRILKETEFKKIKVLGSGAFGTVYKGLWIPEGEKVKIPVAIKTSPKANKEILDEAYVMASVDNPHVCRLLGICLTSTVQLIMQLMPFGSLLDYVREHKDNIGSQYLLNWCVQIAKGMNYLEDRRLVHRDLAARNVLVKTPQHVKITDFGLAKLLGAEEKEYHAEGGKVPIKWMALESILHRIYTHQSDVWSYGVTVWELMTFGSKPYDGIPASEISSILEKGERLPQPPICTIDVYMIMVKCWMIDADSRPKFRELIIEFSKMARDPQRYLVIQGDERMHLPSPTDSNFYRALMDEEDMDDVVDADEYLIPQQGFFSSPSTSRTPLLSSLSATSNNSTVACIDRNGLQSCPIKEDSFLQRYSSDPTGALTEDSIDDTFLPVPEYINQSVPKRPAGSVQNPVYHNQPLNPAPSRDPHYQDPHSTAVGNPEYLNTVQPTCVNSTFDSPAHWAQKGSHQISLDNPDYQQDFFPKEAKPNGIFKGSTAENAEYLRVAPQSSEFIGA

Read-outs that look alike come from different tables or passages of the source.

With `Cc1nn(C)c2c1-c1nccc(n1)Nc1cc(c(-c3ncc(S(C)(=O)=O)cc3F)cn1)N[C@@H](C)CCO2`, the IC50 in experiment [1] (setting [3]) was more than 1000 nM; in experiment [1] (setting [4]), 100 to 1000 nM; in experiment [2] (setting [5]) it was more than 1000 nM; in experiment [2] (setting [6]) it was 100 to 1000 nM; at EGFR D19CS (del19/C797S) (setting [7]) it was more than 1000 nM; on EGFR D19CS (del19/C797S) (setting [8]) it was more than 1000 nM. Moreover, the IC50 at EGFR LRCS (L858R/C797S) (setting [9]) was more than 1000 nM; at EGFR LRCS (L858R/C797S) (setting [10]) it was 100 to 1000 nM; on EGFR WT (setting [11]) it was more than 1000 nM; on EGFR WT (read-out: EGFR WT IC50, ATP Km), more than 1000 nM.

For the compound `Cc1nn(C)c2c1-c1nccc(n1)Nc1cc(c(-c3ncc(CN4CC[C@@H](O)C4)cc3F)cn1)NCC[C@H](C)O2`, the IC50 in experiment [1] (setting [12]) is less than 10 nM; in experiment [2] (setting [13]), less than 10 nM; in experiment [2] (setting [14]), less than 10 nM; at EGFR D19CS (del19/C797S) (setting [15]), 10 to 100 nM; at EGFR D19CS (del19/C797S) (setting [16]), less than 10 nM; on EGFR LRCS (L858R/C797S) (setting [17]) it was 10 to 100 nM. Moreover, the IC50 on EGFR LRCS (L858R/C797S) (setting [18]) was less than 10 nM; on EGFR WT (setting [19]), more than 1000 nM; on EGFR WT (setting [20]), 10 to 100 nM.

Turning to `C[C@H]1CCNc2cc(ncc2-c2cc(C(F)(F)F)n(C)n2)Nc2ccnc(n2)-c2cnn(C)c2O1`, the IC50 (in experiment [1] (setting [3]); in experiment [1] (setting [4]); in experiment [2] (setting [5]); in experiment [2] (setting [6]); at EGFR D19CS (del19/C797S) (setting [7]); at EGFR D19CS (del19/C797S) (setting [8])) was less than 10 nM in each case. In addition, the IC50 was 10 to 100 nM at EGFR LRCS (L858R/C797S) (setting [9]); less than 10 nM on EGFR LRCS (L858R/C797S) (setting [10]); more than 1000 nM at EGFR WT (setting [11]); less than 10 nM at EGFR WT (read-out: EGFR WT IC50, ATP Km).

`Cc1nn(C)c2c1-c1nccc(n1)Nc1cc(c(-c3ccc(S(C)(=O)=O)cn3)cn1)NCC[C@H](C)O2`: the half-inhibitory concentration (IC50) in experiment [1] (setting [12]) is less than 10 nM; in experiment [2] (setting [13]), less than 10 nM; in experiment [2] (setting [14]) it was less than 10 nM; at EGFR D19CS (del19/C797S) (setting [15]) it was less than 10 nM; at EGFR D19CS (del19/C797S) (setting [16]) it was less than 10 nM; at EGFR LRCS (L858R/C797S) (setting [17]), 10 to 100 nM. Further, the 50% inhibitory concentration (IC50) on EGFR LRCS (L858R/C797S) (setting [18]) was less than 10 nM; at EGFR WT (setting [19]), more than 1000 nM; at EGFR WT (setting [20]), less than 10 nM.

On to `COc1cc(OC2CCN(CC(F)(F)F)CC2)cnc1-c1cnc2cc1N[C@@H](C)CCOc1c(cnn1C)-c1nccc(n1)N2`, for which the IC50 in experiment [1] (setting [3]) is 10 to 100 nM; in experiment [1] (setting [4]), less than 10 nM; in experiment [2] (setting [5]), 10 to 100 nM; in experiment [2] (setting [6]), less than 10 nM; on EGFR D19CS (del19/C797S) (setting [7]) it was more than 1000 nM; on EGFR D19CS (del19/C797S) (setting [8]), more than 1000 nM. Also, the half-inhibitory concentration (IC50) on EGFR LRCS (L858R/C797S) (setting [9]) was more than 1000 nM; at EGFR LRCS (L858R/C797S) (setting [10]), more than 1000 nM; on EGFR WT (setting [11]), more than 1000 nM; at EGFR WT (read-out: EGFR WT IC50, ATP Km), more than 1000 nM.

For `Cn1ncc2c1OCC(C)(C)CNc1cc(ncc1-c1ccc(OC(F)F)cn1)Nc1ccnc-2n1`, the IC50 in experiment [1] (setting [3]) is less than 10 nM; in experiment [1] (setting [4]), less than 10 nM; in experiment [2] (setting [5]), less than 10 nM; in experiment [2] (setting [6]), less than 10 nM; at EGFR D19CS (del19/C797S) (setting [7]), 100 to 1000 nM; at EGFR D19CS (del19/C797S) (setting [8]), 10 to 100 nM. Besides, the IC50 is 100 to 1000 nM at EGFR LRCS (L858R/C797S) (setting [9]); 10 to 100 nM at EGFR LRCS (L858R/C797S) (setting [10]); more than 1000 nM at EGFR WT (setting [11]); 100 to 1000 nM at EGFR WT (read-out: EGFR WT IC50, ATP Km).

Regarding `C[C@H]1CCOc2c(cnn2C)-c2nccc(n2)Nc2cc(c(-c3ccc(OC4CCN(C)CC4)cn3)cn2)N1`, the IC50 (in experiment [1] (setting [3]); in experiment [1] (setting [4]); in experiment [2] (setting [5]); in experiment [2] (setting [6]); on EGFR D19CS (del19/C797S) (setting [7]); at EGFR D19CS (del19/C797S) (setting [8])) was less than 10 nM throughout. Also, the IC50 on EGFR LRCS (L858R/C797S) (setting [9]) is less than 10 nM; on EGFR LRCS (L858R/C797S) (setting [10]), less than 10 nM; at EGFR WT (setting [11]), 100 to 1000 nM; at EGFR WT (read-out: EGFR WT IC50, ATP Km), less than 10 nM.

Turning to `Cc1nn(C)c2c1-c1nccc(n1)Nc1cc(c(-c3ccc(C(C)(C)O)cn3)cn1)NCC[C@H](C)O2`, the half-maximal inhibitory concentration (IC50) is less than 10 nM in experiment [1] (setting [12]); less than 10 nM in experiment [2] (setting [13]); less than 10 nM in experiment [2] (setting [14]); 10 to 100 nM at EGFR D19CS (del19/C797S) (setting [15]); less than 10 nM on EGFR D19CS (del19/C797S) (setting [16]); 10 to 100 nM at EGFR LRCS (L858R/C797S) (setting [17]). Also, the IC50 is less than 10 nM on EGFR LRCS (L858R/C797S) (setting [18]), more than 1000 nM at EGFR WT (setting [19]) and 10 to 100 nM on EGFR WT (setting [20]).

As for `Cc1nn(C)c2c1-c1nccc(n1)Nc1cc(c(-c3ncc(CN4CCN(C)CC4)cc3F)cn1)NCC(C)(C)CO2`, the IC50 (in experiment [1] (setting [3]); in experiment [1] (setting [4]); in experiment [2] (setting [5]); in experiment [2] (setting [6]); at EGFR D19CS (del19/C797S) (setting [7]); at EGFR D19CS (del19/C797S) (setting [8])) was less than 10 nM in each case. The IC50 is 10 to 100 nM at EGFR LRCS (L858R/C797S) (setting [9]); less than 10 nM at EGFR LRCS (L858R/C797S) (setting [10]); more than 1000 nM at EGFR WT (setting [11]); less than 10 nM on EGFR WT (read-out: EGFR WT IC50, ATP Km).

The IC50 is the concentration at which inhibition is half-maximal.

(Values after patent US20260384450A1, “MACROCYCLIC AMINOPYRIDINE COMPOUNDS AS EGFR INHIBITORS” (published 2026).)
